Test results: ChEMBL document CHEMBL5365457, “Selective HDAC3 Inhibitors with Potent In Vivo Antitumor Efficacy against Triple-Negative Breast Cancer” (J Med Chem, 2023)

Protein sequences, listed by entry. Tags and fused reporters are not part of them. Lines headed by an entry give the natural chain unless they say otherwise; changes in a name come on top.
UniProt O15379: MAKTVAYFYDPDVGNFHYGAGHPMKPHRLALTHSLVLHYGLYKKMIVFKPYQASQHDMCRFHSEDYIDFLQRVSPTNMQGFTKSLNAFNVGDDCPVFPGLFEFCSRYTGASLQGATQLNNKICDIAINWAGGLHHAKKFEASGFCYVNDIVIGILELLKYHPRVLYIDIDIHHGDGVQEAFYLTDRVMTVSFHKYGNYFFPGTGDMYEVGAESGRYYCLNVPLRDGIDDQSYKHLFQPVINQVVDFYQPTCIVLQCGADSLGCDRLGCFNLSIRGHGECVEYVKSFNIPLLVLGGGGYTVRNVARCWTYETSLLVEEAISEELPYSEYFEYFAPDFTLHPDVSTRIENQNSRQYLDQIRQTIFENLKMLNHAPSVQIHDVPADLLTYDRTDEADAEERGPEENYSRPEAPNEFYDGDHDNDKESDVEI

Assays:
Histone deacetylase 3 [1] = biological target: T1, Histone deacetylase 3 (Homo sapiens, UniProt O15379); assay: Potency index, ratio of PT3 IC50 to test compound IC50 for inhibition of HDAC3 (unknown origin)
Histone deacetylase 3 [2] = biological target: T1, Histone deacetylase 3; assay: Potency index, ratio of BG-45 IC50 to test compound IC50 for inhibition of HDAC3 (unknown origin)
Homo sapiens [3] = species on record: Homo sapiens; assay: Selectivity ratio of IC50 for inhibition of human recombinant HDAC1 to IC50 inhibition of human recombinant HDAC2
Homo sapiens [4] = species on record: Homo sapiens; assay: Selectivity ratio of IC50 for inhibition of human recombinant HDAC1 to IC50 inhibition of human recombinant HDAC3

- Ratio IC50 (Histone deacetylase 3 [1]): 17.5
- Ratio IC50 (Histone deacetylase 3 [2]): 17.5
- Ratio IC50 (Homo sapiens [3]): 121
- Ratio IC50 (Homo sapiens [4]): 121
SMILES: CCCNNC(=O)c1cnc(NCc2ccc(OC)cc2)cn1
